Experimental findings from US11633459B2, “GIP derivatives and uses thereof” (priority 2018, dated 2023) are described below.

The data set in a line: Pharmacokinetic study in minipigs, terminal half-life after i.v. administration. The settings on record: female, Göttingen, minipig, plasma, iv, 5 nmol/kg.
As usually defined, the half-life is the time in which the quantity being followed falls by half. Read a high half-life as slow loss. As to `CCCC[C@H](NC(=O)[C@H](C)NC(=O)[C@@H](NC(=O)[C@H](CO)NC(=O)[C@H](Cc1ccc(O)cc1)NC(=O)[C@H](CC(=O)O)NC(=O)[C@H](CO)NC(=O)[C@@H](NC(=O)[C@H](Cc1ccccc1)NC(=O)[C@@H](NC(=O)CNC(=O)[C@H](CCC(=O)O)NC(=O)[C@H](C)NC(=O)[C@@H](Cc1ccc(O)cc1)NC(C)=O)[C@@H](C)O)[C@@H](C)CC)[C@@H](C)CC)C(=O)N[C@@H](CC(=O)O)C(=O)N[C@@H](CCCCN)C(=O)N[C@H](C(=O)N[C@@H](Cc1c[nH]cn1)C(=O)N[C@@H](CCC(N)=O)C(=O)N[C@@H](CCC(N)=O)C(=O)N[C@@H](CC(=O)O)C(=O)N[C@@H](Cc1ccccc1)C(=O)N[C@H](C(=O)N[C@@H](CCCCNC(=O)CC[C@H](NC(=O)CC[C@H](NC(=O)CC[C@H](NC(=O)C1CCC(CNC(=O)CCCCCCCCCCCCCCCCCCC(=O)O)CC1)C(=O)O)C(=O)O)C(=O)O)C(=O)N[C@@H](Cc1c[nH]c2ccccc12)C(=O)N[C@@H](CC(C)C)C(=O)N[C@@H](CC(C)C)C(=O)N[C@@H](C)C(=O)N[C@@H](CCC(N)=O)C(=O)N[C@@H](CCCCN)C(=O)N1CCC[C@H]1C(N)=O)C(C)C)[C@@H](C)CC` (stereo partly drawn) [Compound 29, N{1}-acetyl,N{Epsilon-24}-[(4S)-4-carboxy-4-[[(4S)-4-carboxy-4-[[(4S)-4-carboxy-4-[[4-[(19-carboxynonadecanoylamino)methyl]cyclohexanecarbonyl]amino]butanoyl]-amino]butanoyl]amino]butanoyl]-[D-Tyr1,Nle14,Lys24,Pro31]-hGIP(1-31) amide], the half-life is 4.96 days. Consider `CCCC[C@H](NC(=O)[C@H](C)NC(=O)[C@@H](NC(=O)[C@H](CO)NC(=O)[C@H](Cc1ccc(O)cc1)NC(=O)[C@H](CC(=O)O)NC(=O)[C@H](CO)NC(=O)[C@@H](NC(=O)[C@H](Cc1ccccc1)NC(=O)[C@@H](NC(=O)CNC(=O)[C@H](CCC(=O)O)NC(=O)C(C)(C)NC(=O)[C@@H](Cc1ccc(O)cc1)NC(C)=O)[C@@H](C)O)[C@@H](C)CC)[C@@H](C)CC)C(=O)N[C@@H](CC(=O)O)C(=O)N[C@@H](CCCCN)C(=O)N[C@H](C(=O)N[C@@H](CCCNC(=N)N)C(=O)N[C@@H](CCC(N)=O)C(=O)N[C@@H](CCC(N)=O)C(=O)N[C@@H](CC(=O)O)C(=O)N[C@@H](Cc1ccccc1)C(=O)N[C@H](C(=O)N[C@@H](CCCCNC(=O)CC[C@H](NC(=O)CC[C@H](NC(=O)CC[C@H](NC(=O)C1CCC(CNC(=O)CCCCCCCCCCCCCCCCCCC(=O)O)CC1)C(=O)O)C(=O)O)C(=O)O)C(=O)N[C@@H](Cc1c[nH]c2ccccc12)C(=O)N[C@@H](CC(C)C)C(=O)N[C@@H](CC(C)C)C(=O)N[C@@H](C)C(=O)N[C@@H](CCC(N)=O)C(=O)N[C@@H](CCCCN)C(=O)NCC(=O)O)C(C)C)[C@@H](C)CC` (stereo partly drawn) [Compound 6, N{1}-acetyl,N{Epsilon-24}-[(4S)-4-carboxy-4-[[(4S)-4-carboxy-4-[[(4S)-4-carboxy-4-[[4-[(19-carboxynonadecanoylamino)methyl]cyclohexanecarbonyl]amino]butanoyl]amino]butanoyl]amino]butanoyl]-[D-Tyr1,Aib2,Nle14,Arg18,Lys24]-hGIP(1-31)], for which the half-life is 5.21 days. Under `CCCC[C@H](NC(=O)[C@H](C)NC(=O)[C@@H](NC(=O)[C@H](CO)NC(=O)[C@H](Cc1ccc(O)cc1)NC(=O)[C@H](CC(=O)O)NC(=O)[C@H](CO)NC(=O)[C@@H](NC(=O)[C@H](Cc1ccccc1)NC(=O)[C@@H](NC(=O)CNC(=O)[C@H](CCC(=O)O)NC(=O)[C@H](C)NC(=O)[C@@H](Cc1ccc(O)cc1)NC(C)=O)[C@@H](C)O)[C@@H](C)CC)[C@@H](C)CC)C(=O)N[C@@H](CC(=O)O)C(=O)N[C@@H](CCCCN)C(=O)N[C@H](C(=O)N[C@@H](Cc1c[nH]cn1)C(=O)N[C@@H](CCC(N)=O)C(=O)NC(C)(C)C(=O)N[C@@H](CC(=O)O)C(=O)N[C@@H](Cc1ccccc1)C(=O)N[C@H](C(=O)N[C@@H](CCCCNC(=O)CC[C@H](NC(=O)CC[C@H](NC(=O)CC[C@H](NC(=O)C1CCC(CNC(=O)CCCCCCCCCCCCCCCCCCC(=O)O)CC1)C(=O)O)C(=O)O)C(=O)O)C(=O)N[C@@H](Cc1c[nH]c2ccccc12)C(=O)N[C@@H](CC(C)C)C(=O)N[C@@H](CC(C)C)C(=O)N[C@@H](C)C(=O)N[C@@H](CCC(N)=O)C(=O)N[C@@H](CCCCN)C(=O)NCC(=O)O)C(C)C)[C@@H](C)CC` (stereo partly drawn) [Compound 24, N{1}-acetyl,N{Epsilon-24}-[(4S)-4-carboxy-4-[[(4S)-4-carboxy-4-[[(4S)-4-carboxy-4-[[4-[(19-carboxynonadecanoylamino)methyl]cyclohexanecarbonyl]amino]butanoyl]-amino]butanoyl]amino]butanoyl]-[D-Tyr1,Nle14,Aib20,Lys24]-hGIP(1-31)] stands 5.21 days.
